Legend:
IL-6 = IL-6 production by human primary PBMC stimulated by heat-killed Staphylococcus aureus (ELISA); format: cell-based; details: 10 μM; 10^8 HKSA/ml particles; 20 hours
Method: FIG. 22. Inhibition by HB-19 of the production of TNF-α and IL-6 by primary human mononuclear peripheral blood cells (PBMC) stimulated by Staphylococcus aureus bacteria inactivated by heat (HKSA, <<heat-killed Staphylococcus aureus>>). PBMCs were isolated by centrifugation on a Ficoll density gradient using whole human blood EDTA-potassium and resuspended in RPMI 1640 containing 1% human serum AB (Invitrogen). Cells at a concentration of 10^6 cell/0.5 ml, in the absence (control) or presence (10 μM) of HB-19, Nucant 3, Nucant 6 or Nucant 7 or Dexamethasone (Dex. 1 μg/ml), were stimulated with 10^8 HKSA/ml particles (InvivoGen, San Diego, USA). PBMC cultures were incubated at 37° C. in an incubator with 5% CO2 and TNF-α (A) and IL-6 (B) levels were measured by ELISA in culture supernatants collected after 20 hours of incubation.
The inventors therefore measured TNF-α and IL-6 levels in human primary PBMC cultures in response to Staphylococcus aureus bacteria inactivated by heat (HKSA, <<heat-killed Staphylococcus aureus>>), in the absence (control) or presence of 10 μM of the compounds HB-19, Nucant 3, Nucant 6, or Nucant 7. As the positive control (Dex.), PBMC was also treated with dexamethasone which is a glucocorticosteroid with known anti-inflammatory and immunosuppressant activity. […]

NIH-3T3 cells = test: Proliferation of NIH-3T3 cells stimulated by 5% foetal calf serum (tritiated thymidine incorporation); format: cell-based; details: 0.5 μM; 5% foetal calf serum
Method: FIG. 5. Effect of HB-19 on the proliferation of NIH-3T3 cells stimulated by 0.2 nM FGF-2 (A) or by 5% foetal calf serum (B). Quiescent NIH-3T3 cells are stimulated by FGF-2 or by 5% serum in the presence or not of HB19 at the concentrations indicated. After 24 hours of incubation, cell proliferation was determined by measuring the incorporation of tritiated thymidine. The results are given as a percentage with respect to the control stimulated by HARP (100%). MSD (threshold), (**p<0.01 and ***p<0.001).
FIG. 14. Effect of NUCANT 3, 6 and 7 on the proliferation of NIH-3T3 cells stimulated by 5% FCS. NIH-3T3 cells are made quiescent by serum deprivation are stimulated by 5% FCS in the presence or not of various NUCANT 3, 6 and 7 concentrations ranging from 0.125 to 2 μM. After 24 hours of incubation, cell proliferation was determined by measuring the incorporation of tritiated thymidine. The results are given as a percentage with respect to the control cells stimulated by 5% FCS. ID50 is indicated by the dotted line.
The effect of Nucant 3 on the proliferation of NIH-3T3 cells treated by 5% of FCS was also compared to that of compound HB-19. NIH-3T3 cells made quiescent by serum deprivation were stimulated by 5 FCS in the presence or not of different concentrations of NUCANT 3, 6 or 7 ranging from 0.125 to 2 μM. After 24 hours in incubation, cell proliferation is determined by measuring the incorporation of tritiated thymidine as described earlier.
The effect of hexavalent compounds Nucant 6 and Nucant 7 on the proliferation of NIH-3T3 cells triggered by 5% FCS was compared with that of pentavalent compound HB-19. NIH-3T3 cells made quiescent by serum deprivation stimulated by 5% FCS in the presence of various concentrations of NUCANT 3, 6 or 7 ranging from 0.125 to 2 μM. After 24 hours of incubation, cell proliferation was determined by measuring the incorporation of tritiated thymidine as described above.

In the case of CCCC[C@H](NC(=O)[C@H](CCCCNC(=O)[C@H](CCCNC(=N)N)NC(=O)[C@@H]1CCCN1C[C@@H](N)CCCCN)NC(=O)[C@H](CCC(=O)O)NC(=O)[C@H](CCCCNC(=O)[C@H](CCCNC(=N)N)NC(=O)[C@@H]1CCCN1C[C@@H](N)CCCCN)NC(=O)[C@@H]1CCCN1C(=O)CNC(=O)[C@H](CCCCNC(=O)[C@H](CCCNC(=N)N)NC(=O)[C@@H]1CCCN1C[C@@H](N)CCCCN)NC(=O)[C@H](CCCCN)NC(=O)[C@H](CCCCNC(=O)[C@H](CCCNC(=N)N)NC(=O)[C@@H]1CCCN1C[C@@H](N)CCCCN)NC(=O)[C@H](CCCNC(=N)N)NC(=O)[C@@H]1CCCN1C[C@@H](N)CCCCN)C(N)=O [HB19, 5[Kpsi(CH2N)PR]-TASP], the “inhibition of IL-6 production” value (IL-6) is reported as “significant inhibition” and the “inhibition of proliferation of cells stimulated by foetal calf serum” value (NIH-3T3 cells) is reported as “capable of inhibiting”.

— patent publication US8497349B2, “Use of multivalent synthetic ligands of surface nucleolin for treating cancer or inflammation” (Centre National de la Recherche Scientifique (CNRS), priority 2006, dated 2013)
